# Results: patent US20110150914A1, “COMPOSITIONS AND METHODS FOR DENGUE VIRUS (DV) TREATMENT AND VACCINATION” (priority 2008, published 2011)
# Sequences of proteins named here, by UniProt entry; tags and fusion partners are left off. Residues count along the entry.
# UniProt P01899, 25-362: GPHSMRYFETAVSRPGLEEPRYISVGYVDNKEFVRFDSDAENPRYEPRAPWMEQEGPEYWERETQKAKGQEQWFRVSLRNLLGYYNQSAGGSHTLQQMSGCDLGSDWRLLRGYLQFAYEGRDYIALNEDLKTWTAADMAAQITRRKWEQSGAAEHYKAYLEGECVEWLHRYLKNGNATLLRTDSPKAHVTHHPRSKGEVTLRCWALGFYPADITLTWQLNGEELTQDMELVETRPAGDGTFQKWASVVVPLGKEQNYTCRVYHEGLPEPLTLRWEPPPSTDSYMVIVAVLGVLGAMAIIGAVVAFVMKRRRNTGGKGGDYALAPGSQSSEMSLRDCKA
# Molecular target: T1, purified H-2 D^b molecules (Mus musculus, UniProt P01899)
# T1 construct: made in house
# Test: MHC peptide-binding assay, purified H-2 D^b
# Conditions: radiolabeled peptide competition, read-out: Binding affinity (IC50 nM) H2-D^b
# Experimental: Briefly, 0.1-1 nM of radiolabeled peptide was co-incubated at room temperature with 1 μM to 1 nM of purified MHC in the presence of 1-3 μM human β2-microglobulin (Scripps Laboratories) and a mixture of protease inhibitors. After a 2 day incubation, binding of the radiolabeled peptide to the corresponding MHC class I molecule was determined by capturing MHC/peptide complexes on Lumitrac 600 microplates (Greiner Bio-One) coated with either the Y3 (anti-H-2 K^b) or 28-14-8S (anti-H-2 D^b, L^d and D^q) Ab, followed by measurement of bound counts per minute (cpm) using the TopCount microscintillation counter (Packard).
structure (smiles),measurement,value
"CC(C)C[C@H](NC(=O)[C@H](CO)NC(=O)[C@@H](NC(=O)[C@H](CC(N)=O)NC(=O)[C@@H](NC(=O)[C@H](CO)NC(=O)[C@@H](N)CO)C(C)C)C(C)C)C(=O)N[C@H](C(=O)O)[C@@H](C)O [NS4B59-66, SSVNVSLT]",IC50,1450 nM
